Assay results taken from publication PMC8225628, “Bispecific repurposed medicines targeting the viral and immunological arms of COVID-19” (Scientific Reports, 2021).

Target: SARS-CoV-2 PL^pro (Severe acute respiratory syndrome coronavirus 2, UniProt P0DTD1)
Experiment: biochemical
Conditions: read-out: PL^pro % inhibition at 10 µM

`COc1cc(O)c(CC=C(C)C)c(O)c1C(=O)/C=C/c1ccc(O)cc1` [xanthohumol] was tested. Which inhibition at 10 µM did it give?
The inhibition at 10 µM was 11%.
